Reference: patent US20220079993A1, “NON-NATURALLY OCCURRING THERMOGENIC ADIPOCYTES, METHODS OF MAKING, AND METHODS OF USE THEREOF” (University of Georgia Research Foundation, Inc., priority 2019, published 2022)

Tested on: beige adipocytes
Test: High-throughput primary screen, lipolysis assay (glycerol release), 384-well
Assay type: cell-based, human
Description: ADSCs were seeded at 5000 cell/cm^2 in 12-well plates, grown for 5 days and then induced to differentiate into GC for 20 days. […] Cells were treated with forskolin (20 μM) for indicated time periods and supernatant samples were collected. Lipolysis assay was performed with free glycerol reagent (Sigma, F6428-40ML), according to manufacturer instructions.
ADSCs were plated in 384-well plates at a density of 5000 cell/cm2 and grown to confluency over ˜4 days. Cells were then differentiated to beige adipocytes using B-8 medium for 21 days. All cell culture and incubations in the 384-well format were done at 37° C. and 5% CO2. […] The use of FDA-approved drugs may allow for re-purposing for therapeutic use.
Lipolysis assays were performed after 24 hours of drug treatment by measuring free glycerol released in the 384-well format, using the procedure described above. Absorbance for each compound was normalized to untreated control samples for each plate and calculated as a percent of the control. Cut-offs for “activating” and “inhibiting” compounds were set at 2-fold. Validation assays were performed for select compounds at a range of concentration doses.

`O=[N+]([O-])c1ccc(-c2nc(-c3ccncc3)c(-c3ccc(F)cc3)[nH]2)cc1` [PD 169316] was tested, and the “% Control (relative levels of glycerol release)” value was 39.64 % control.
